# This is a selection; strong and weak results do not stand in their true shares. Calls of active or inactive are those of the source. Cut-off read from the data, not from the text of the source: active = inhibition above about 4.5%; inactive = the rest.
# Test system: Methionine sulfoxide reductase A (Bos taurus)
# Experiment: bovine MsrA inhibitors, retest, confirmation, biochemical, absorbance, HTS (AID 651822);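 note: coupled to thioredoxin reductase with NADPH and selenocystamine and DMSO as substrate; 0% = vehicle only and 100% = full effect of reference inhibitor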
# Details: purified bovine MsrA, absorbance read-out; at 15.5 µM; active compounds read high
row,Compound,inhibition
1,CC(=O)Nc1ccc(Oc2c([N+](=O)[O-])cc([N+](=O)[O-])cc2[N+](=O)[O-])cc1,active: 4.69%
2,Nc1ccc(CCCCOc2ccccc2)cc1,inactive: 2.4%
3,O=C(O)c1ccccc1[As](=O)(O)O,active: 81.5%

# From PubChem BioAssay AID651822 (The Scripps Research Institute Molecular Screening Center, 2012)
